# Earlier results in paper PMC10349193 (CPT: Pharmacometrics & Systems Pharmacology, 2023).
# System: CYP2C19
# Set-up: method as in SimCYP library version 19
# Settings: cited from earlier work
structure (smiles),measurement,value
CO[C@H]1/C=C/O[C@@]2(C)Oc3c(C)c(O)c4c(O)c(c(/C=N/N5CCN(C)CC5)c(O)c4c3C2=O)NC(=O)/C(C)=C\C=C\[C@H](C)[C@H](O)[C@@H](C)[C@@H](O)[C@@H](C)[C@H](OC(C)=O)[C@@H]1C [Rifampicin],CYP2C19 Indmax,5.5/30/0.32/30/1/1
same,fuinc (CYP2C19 induction),5.5/30/0.32/30/1/1
